Among the data in article PMC11730311 (Scientific Reports, 2025) are EC50 values, retold here.

Sequences of proteins named here, by UniProt entry; tags and fusion partners are left off. Residues count along the entry.
UniProt O60894, 27-148: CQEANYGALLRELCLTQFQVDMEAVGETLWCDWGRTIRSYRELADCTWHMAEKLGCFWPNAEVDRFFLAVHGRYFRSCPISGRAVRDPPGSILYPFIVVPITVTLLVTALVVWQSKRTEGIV
UniProt Q16602, 23-461: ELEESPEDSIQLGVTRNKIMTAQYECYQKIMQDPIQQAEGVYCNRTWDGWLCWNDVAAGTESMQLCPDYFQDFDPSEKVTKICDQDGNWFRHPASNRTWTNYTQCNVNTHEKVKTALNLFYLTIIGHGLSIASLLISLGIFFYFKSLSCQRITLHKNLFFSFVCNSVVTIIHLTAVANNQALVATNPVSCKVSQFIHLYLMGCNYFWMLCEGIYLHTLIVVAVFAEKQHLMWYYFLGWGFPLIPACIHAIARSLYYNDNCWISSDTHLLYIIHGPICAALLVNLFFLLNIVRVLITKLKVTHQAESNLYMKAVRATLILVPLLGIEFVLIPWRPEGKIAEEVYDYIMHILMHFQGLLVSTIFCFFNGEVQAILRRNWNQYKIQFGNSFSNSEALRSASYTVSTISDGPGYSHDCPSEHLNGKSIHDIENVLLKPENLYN

This assay concerns the target human calcitonin gene-related peptide receptor (hCGRP-R) (Homo sapiens, UniProt O60894+Q16602). Description: HTRF cAMP assay, agonist potency in the CHO-K1 hCGRP-R cell line. Format: cell-based. A general note: Time-resolved FRET reads energy transfer from a long-lived donor to a nearby acceptor.

In general, EC50 refers to the concentration needed to bring the measured effect to its halfway point. As for `CC[C@H](C)[C@H](NC(=O)[C@H](C)NC(=O)CNC(=O)[C@H](Cc1ccccc1)NC(=O)[C@H](CC(N)=O)NC(=O)[C@H](CC(N)=O)NC(=O)[C@H](CO)NC(=O)[C@H](CO)NC(=O)[C@H](Cc1c[nH]cn1)NC(=O)[C@@H](NC(=O)[C@H](CC(C)C)NC(=O)[C@H](Cc1ccccc1)NC(=O)[C@H](CC(N)=O)NC(=O)[C@H](C)NC(=O)[C@H](CC(C)C)NC(=O)[C@H](CCCNC(=N)N)NC(=O)[C@H](CCC(N)=O)NC(=O)[C@@H](NC(=O)[C@H](C)NC(=O)[C@@H]1CSSC[C@H](NC(=O)[C@@H](N)CCCCN)C(=O)N[C@@H](CC(N)=O)C(=O)N[C@@H]([C@@H](C)O)C(=O)N[C@@H](C)C(=O)N[C@@H]([C@@H](C)O)C(=O)N1)[C@@H](C)O)C(C)C)C(=O)N[C@@H](CC(C)C)C(=O)N[C@@H](CO)C(=O)N[C@@H](CO)C(=O)N[C@H](C(=O)N[C@@H](CC(N)=O)C(=O)N[C@H](C(=O)NCC(=O)N[C@@H](CO)C(=O)N[C@@H](CC(N)=O)C(=O)N[C@H](C(=O)N[C@@H](Cc1ccc(O)cc1)C(N)=O)[C@@H](C)O)C(C)C)[C@@H](C)O` [hAmylin], the EC50 came to 1.2 nM.
